Measurements: PubChem BioAssay AID449762 (Southern Research Specialized Biocontainment Screening …, 2010)
Some of the results follow. Some of these compounds have results that are not shown, active ones among them. Inconclusive results are not listed. Activity calls are given as the source filed them. Rule as the data show it: inconclusive = inhibition above about 70% without an active follow-up result; inactive = below that.

Experiment: M. tuberculosis growth inhibition, HTS (AID 449762);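 also: bacterial growth assessed after seven days of incubation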
Details: M. tuberculosis H37Rv growth inhibition, 7H9 media; at 25 µM; active compounds read high

Compound	inhibition
CN(C)c1cccc(C(=O)NCC2(N(C)C)CCCCC2)c1	inactive: -1.89%
CC(C)Oc1ccc(C(=O)NCC2(N(C)C)CCCCC2)cc1	inactive: 0.95%
COc1ccc(Br)c(C(=O)NCC2(N3CCCCC3)CCCCC2)c1	inactive: -9.03%
O=C(OC1CN2CCC1CC2)C(CO)(c1ccccc1)c1ccccc1 (centres undefined)	inactive: -2.92%
O=C(NCC1(N2CCCCC2)CCCCC1)c1cccc(Cl)c1	inactive: -1.49%
COc1cccc(C(=O)NCC2(N3CCCCC3)CCCCC2)c1	inactive: 3.02%
COc1ccc(Cl)cc1C(=O)NCC1(N(C)C)CCCCC1	inactive: 8.28%
COc1cc(C(=O)NCC2(N(C)C)CCCCC2)c([N+](=O)[O-])cc1OC	inactive: 1.68%
CN(C)C1(CNC(=O)c2ccc(Br)cc2)CCCCC1	inactive: 3.09%
Cc1cc(C(=O)NCC2(N3CCCCC3)CCCCC2)ccc1[N+](=O)[O-]	inactive: -4.63%
CCN1CCCC(OC(=O)C2(O)c3ccccc3C=Cc3ccccc32)C1 (centres undefined)	inactive: -2%
O=C(NCC1(N2CCCCC2)CCCCC1)c1cccc(Br)c1	inactive: 10.6%
COc1ccc(C(=O)NCC2(N(C)C)CCCCC2)cc1	inactive: -0.3%
C=CCN1CCN(CCOC(=O)C(O)(c2ccccc2)c2ccccc2)CC1	inactive: 0.52%
O=C(NCC1(N2CCCCC2)CCCCC1)c1cc(F)c(F)cc1Cl	inactive: -2.32%
Cc1ccccc1C(=O)NCC1(N2CCCCC2)CCCCC1	inactive: -3.07%
CN(C)C1CCCC1OC(=O)C(O)(c1ccccc1)c1ccccc1 (centres undefined)	inactive: 3.08%
CN(C)c1ccc(C(=O)NCC2(N(C)C)CCCCC2)cc1	inactive: 3.95%
Cc1ccc(C(=O)NCC2(N3CCCCC3)CCCCC2)cc1	inactive: 7.79%
CC(C)N1C(=O)CC2(CCN(CCOC(=O)C(O)(c3ccccc3)c3ccccc3)CC2)C1=O	inactive: -5.79%
CCN(CC)CC(C)C(C)OC(=O)C(O)(c1ccccc1)c1ccccc1 (centres undefined)	inactive: 0.61%
COc1cc(SC)ccc1C(=O)NCC1(N(C)C)CCCCC1	inactive: 5.01%
CN1[C@@H]2CC[C@H]1CC(OC(=O)C(O)(c1ccccc1)c1ccccc1)C2 (some centres undefined)	inactive: 6.84%
O=C(NCC1(N2CCCCC2)CCCCC1)c1cc([N+](=O)[O-])ccc1Cl	inactive: -5.92%
